Measured values as given in patent US6251605A, “Yeast cells having mutations in Cav1 and uses therefor” (priority 1999, dated 2001).

Chains of the proteins cited; added tags and fusions are not shown.
UniProt P32245, whole entry: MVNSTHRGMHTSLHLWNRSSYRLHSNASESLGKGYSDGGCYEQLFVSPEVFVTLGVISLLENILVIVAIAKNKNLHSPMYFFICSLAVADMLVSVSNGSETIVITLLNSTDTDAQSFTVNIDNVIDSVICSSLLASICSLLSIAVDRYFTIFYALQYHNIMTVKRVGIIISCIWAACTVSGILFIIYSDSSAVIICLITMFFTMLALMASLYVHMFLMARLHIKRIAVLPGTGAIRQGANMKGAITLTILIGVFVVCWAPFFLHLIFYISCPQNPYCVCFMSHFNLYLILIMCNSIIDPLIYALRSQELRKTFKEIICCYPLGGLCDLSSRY

Biological target: T1, melanocortin receptor 4 (MCR4) (Homo sapiens, UniProt P32245)
T1 construct: yeast alpha-factor leader (N); expressed in transfected cells; host or cells: S. cerevisiae CY0151 (wild type (so in the source)) and CY14804 (cav1), plasmid Cp4421
Test: β-galactosidase assay in yeast expressing MCR4
Type: cell-based
Conditions: CY14804 (cav1) versus wild type, 2 hours incubation

NDP-α-MSH
increase of ligand-induced level of β-galactosidase activity in cav1 background: 2-3 fold
